AlphaSeq binding of Ab-14 light chain variants to a spike HR2 peptide

Source: Engelhart et al. 2022 (doi:10.1038/s41597-022-01779-4), MIT Lincoln Laboratory and A-Alpha Bio; data file from the FLAb repository.

All variants were tested on one target, the spike HR2 peptide PDVDLGDISGINAS (SARS-CoV-2).

Parent: Ab-14, a human scFv built as VH, a (GGGGS)3 linker, VL. Only the CDRs of the light chain vary.
VH: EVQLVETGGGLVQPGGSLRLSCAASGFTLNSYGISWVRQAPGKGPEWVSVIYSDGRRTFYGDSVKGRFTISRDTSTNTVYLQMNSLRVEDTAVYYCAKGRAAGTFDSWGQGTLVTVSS
VL: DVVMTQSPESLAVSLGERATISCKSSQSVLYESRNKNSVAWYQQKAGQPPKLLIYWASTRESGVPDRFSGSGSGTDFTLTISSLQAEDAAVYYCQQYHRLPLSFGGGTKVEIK

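The starting antibody came from a phage panning campaign against this peptide. AAYL50 was designed without a model: most single CDR substitutions and a random sample of double and triple ones. In AlphaSeq, yeast of one mating type display the scFv and yeast of the other type display the target. Binding brings cells together so that they mate, and sequencing counts the barcode pairs among the diploids. Read counts were normalised to the haploid input and turned into Kd by a linear fit to BCL2-family pairs of known affinity, for each replicate. There are three technical replicates.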

Changes read parent residue, position, new residue, counted from the first residue of the VL shown.
The Kd shown is the geometric mean over detected replicates; a lower Kd is a better binder.
"nd" marks a missing value. The strain was present, yet no cells mated with the target were sequenced in any replicate, which points to weak or no binding.
In this assay the parent's reference entry averaged 4.4 nM; its copy inside this library read 48 nM.
Empty control strains, which show no peptide, gave a signal in 18% of pairings with library AAYL50; the median was 15 µM and 95% of these signals were weaker than 970 nM. No background was subtracted.

| # | changes | Kd (apparent) | detected |
|---|---|---|---|
| 1 | N35D S62C | 15 nM | 3/3 |
| 2 | K24N S28M E32A | 560 nM | 3/3 |
| 3 | S25I A57W R60C | nd | 0/3 |
| 4 | Y31S Q96G | 890 nM | 1/3 |
| 5 | N35Q N37K L102V | 1.9 µM | 3/3 |
| 6 | S28N N37A A57C | 400 nM | 3/3 |
| 7 | T59S L100A L102K | 59 µM | 3/3 |
| 8 | S25G S58F L102T | nd | 0/3 |
| 9 | S25L A57S Y97P | 3.2 µM | 3/3 |
| 10 | S28N Q96M P101I | 270 nM | 1/3 |
| 11 | S26Y A57K Q96T | nd | 0/3 |
| 12 | A57N Y97P R99G | nd | 0/3 |
| 13 | S25D Y31K N37P | 650 nM | 3/3 |
| 14 | A40K L100V | nd | 0/3 |
| 15 | K24C A57E Y97I | nd | 0/3 |
| 16 | K24P R34F K36V | 2.4 µM | 1/3 |
| 17 | Q27T N37K S38W | nd | 0/3 |
| 18 | K24R N37K | 56 nM | 3/3 |
| 19 | Q27T E32M | 100 nM | 3/3 |
| 20 | Y31H L100W | nd | 0/3 |
| 21 | E32W N37C S38I | 21 µM | 1/3 |
| 22 | E32P S38P S62G | 600 nM | 3/3 |
| 23 | Q27I S28R R99L | 550 nM | 3/3 |
| 24 | L30W Y31I P101D | nd | 0/3 |
| 25 | K24E S26F V39Q | 26 µM | 2/3 |
| 26 | R34M H98E L100Y | 22 nM | 3/3 |
| 27 | S38N S58R | 21 nM | 3/3 |
| 28 | R34H R99N P101W | 500 µM | 2/3 |
| 29 | K24C S28K A57Q | nd | 0/3 |
| 30 | S33W R60N Y97A | 260 µM | 1/3 |
| 31 | S25I W56S S62N | 360 pM | 3/3 |
| 32 | S26V Q27G S38F | 2.2 µM | 2/3 |
| 33 | R34E R60C E61N | 410 nM | 3/3 |
| 34 | Q27G S62A L100C | 14 nM | 3/3 |
| 35 | N35E L102C | nd | 0/3 |
| 36 | Y31H R60A P101N | nd | 0/3 |
| 37 | S28V S33E L100I | 17 nM | 3/3 |
| 38 | S26Y E61F S103W | 2.0 µM | 3/3 |
| 39 | Y31W L100H P101A | nd | 0/3 |
| 40 | R34E Q95A L100T | 1.9 nM | 3/3 |
| 41 | K24L Q96H | 760 nM | 1/3 |
| 42 | Q27G N37F P101T | nd | 0/3 |
| 43 | K24W V29E Y31R | 130 nM | 3/3 |
| 44 | S28A L100C P101N | 24 µM | 2/3 |
| 45 | S26Y H98P S103H | 160 µM | 1/3 |
| 46 | L30T E32I T59Y | 340 nM | 2/3 |
| 47 | Q27A K36V N37C | 530 nM | 3/3 |
| 48 | S33N V39I H98S | 32 nM | 3/3 |
| 49 | T59D Y97K L102Q | 2.6 µM | 2/3 |
| 50 | Q96C H98A | nd | 0/3 |
| 51 | S33E R34E P101I | 2.0 nM | 3/3 |
| 52 | S33T R60S | 28 µM | 3/3 |
| 53 | S38N A57V E61G | 1.7 nM | 3/3 |

Picked from the list: the 4 lowest averages where every replicate gave a value.

{"changes": "S25I W56S S62N", "Kd (apparent)": "360 pM", "detected": "3/3"}
{"changes": "S38N A57V E61G", "Kd (apparent)": "1.7 nM", "detected": "3/3"}
{"changes": "R34E Q95A L100T", "Kd (apparent)": "1.9 nM", "detected": "3/3"}
{"changes": "S33E R34E P101I", "Kd (apparent)": "2.0 nM", "detected": "3/3"}